The source of these data is PMC3679522, “Scaffold nucleoporins Nup188 and Nup192 share structural and functional properties with nuclear transport receptors” (eLife, 2013).

This assay deals with T1, GST-ScNSP1(1–603) (S. cerevisiae, UniProt P14907 1-603).
T1 construct: Nsp1 of S. cerevisiae, FXFG-type FG-repeat region, residues 1-603; In pGEX-2T; also called GST-NSP1(1–603); source: E. coli BL21(DE3), purified (GSH beads, eluted with glutathione, dialysed); not shown: GST, N-terminal, kept
Kind of assay: pull-down; GST-FG fusions pre-bound to GSH beads; soluble protein (100-500 pmol) pre-mixed with 200 μg bacterial extract proteins in 0.5 ml pulldown buffer (10 mM HEPES pH 7.5, 160 mM KOAc, 1 mM MgOAc2, 1 mM DTT, 0.01% Triton X-100); 20 min, room temperature; eluted with 1 M NaCl, then SDS-sample buffer; SDS-PAGE, SYPRO Ruby. Conditions: both partners purified.

B1: importin β from S. cerevisiae (ScKap95) (natural protein, UniProt Q06142 1-861, looked up)
chain: MSTAEFAQLLENSILSPDQNIRLTSETQLKKLSNDNFLQFAGLSSQVLIDENTKLEGRILAALTLKNELVSKDSVKTQQFAQRWITQVSPEAKNQIKTNALTALVSIEPRIANAAAQLIAAIADIELPHGAWPELMKIMVDNTGAEQPENVKRASLLALGYMCESADPQSQALVSSSNNILIAIVQGAQSTETSKAVRLAALNALADSLIFIKNNMEREGERNYLMQVVCEATQAEDIEVQAAAFGCLCKIMSLYYTFMKPYMEQALYALTIATMKSPNDKVASMTVEFWSTICEEEIDIAYELAQFPQSPLQSYNFALSSIKDVVPNLLNLLTRQNEDPEDDDWNVSMSAGACLQLFAQNCGNHILEPVLEFVEQNITADNWRNREAAVMAFGSIMDGPDKVQRTYYVHQALPSILNLMNDQSLQVKETTAWCIGRIADSVAESIDPQQHLPGVVQACLIGLQDHPKVATNCSWTIINLVEQLAEATPSPIYNFYPALVDGLIGAANRIDNEFNARASAFSALTTMVEYATDTVAETSASISTFVMDKLGQTMSVDENQLTLEDAQSLQELQSNILTVLAAVIRKSPSSVEPVADMLMGLFFRLLEKKDSAFIEDDVFYAISALAASLGKGFEKYLETFSPYLLKALNQVDSPVSITAVGFIADISNSLEEDFRRYSDAMMNVLAQMISNPNARRELKPAVLSVFGDIASNIGADFIPYLNDIMALCVAAQNTKPENGTLEALDYQIKVLEAVLDAYVGIVAGLHDKPEALFPYVGTIFQFIAQVAEDPQLYSEDATSRAAVGLIGDIAAMFPDGSIKQFYGQDWVIDYIKRTRSGQLFSQATKDTARWAREQQKRQLSL
notes: Kap95 (importin β) of S. cerevisiae, PCR-amplified ORF
For the molecule B1, the binding result is reported as “binds”.
